The test system of this assay is patients with nociceptive or neuropathic pain. Put plainly: Patient examples 1-5: oral AV1066, patient-reported pain control. It counts as in vivo, human. As to the method:
A patient or subject (the terms are used interchangeably) presents with a fractured collar bone arising from a bicycling accident. They are complaining of significant shoulder pain. The patient's pain is classified according to the
International Association for the Study of Pain as nociceptive. They are orally administered AV1066 5 mg/kg/day. They are examined at days 3, 7, 16, and 28. At each visit the patient is assessed for pain control compared with the previous visit. The patient reports the pain to be both tolerable and improved at each visit.
A patient presents with a second […]. They are complaining of significant pain. The patient's pain is classified according to the International Association for the Study of Pain as nociceptive. They are orally administered the phosphate salt of AV1066 10 mg/kg daily in two doses. They are examined at 12 hours, and daily thereafter for 4 days. At each visit the patient is assessed for pain control compared with the previous visit. The patient reports the pain to be both tolerable and improved at each visit.
A patient presents with a benign tumor mass compressing their left shoulder causing movement pain. The patient's pain is classified according to the International Association for the Study of Pain as nociceptive. […] At each visit the patient is assessed for pain control compared with the previous visit. […]

As for “(−) 1-(3-4(((1R,3S,5S)-adamantan-1-yl)(phenyl)methyl)propyl)-4-methylpiperazine”, the patient-reported pain control entry (Example 5, trigeminal neuralgia, oral 350 mg, one to three doses in 12 hours) is “one or two doses significantly reduce the frequency and severity of pain”.
For the substance “(+) 1-(3-4(((1R,3S,5S)-adamantan-1-yl)(phenyl)methyl)propyl)-4-methylpiperazine”, under “Example 4, postherpetic neuralgia (neuropathic), oral 10 mg/kg daily on days of significant pain”, the patient-reported pain control entry was “pain reduced and the outbreaks lessened din severity and duration”.

For the origin of these results see patent US10933062B2, “Analgesic therapeutic and method, 1-(3-4(((1 R,3S,5S)-adamantan-1-yl)(phenyl)methyl)propyl)-4-methylpiperazine and salts thereof” (ANAVEX LIFE SCIENCES CORP., priority 2016, dated 2021).
